Ab-14 heavy chain CDR variants: yeast mating affinities

Target: peptide PDVDLGDISGINAS, taken from heptad repeat 2 (HR2) of SARS-CoV-2 spike.

Each scFv is VH, three GGGGS repeats, VL, as in the parent Ab-14, and differs from it in the CDRs of the heavy chain only.
VH: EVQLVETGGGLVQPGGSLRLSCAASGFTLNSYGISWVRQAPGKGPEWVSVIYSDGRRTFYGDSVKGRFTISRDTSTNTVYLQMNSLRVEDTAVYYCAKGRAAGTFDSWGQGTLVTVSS
VL: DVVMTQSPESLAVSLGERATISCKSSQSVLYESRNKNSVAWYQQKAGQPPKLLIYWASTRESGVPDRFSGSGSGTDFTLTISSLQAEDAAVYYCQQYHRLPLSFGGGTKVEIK

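The parent was found by panning a naive human phage display library on the peptide. AAYL49 was designed without a model: most single CDR substitutions and a random sample of double and triple ones. The scFvs were displayed on barcoded MATa yeast, the peptide on MATalpha yeast. Pairs that bind mate more often; barcode pairs of the diploids are counted by sequencing. Each replicate has its own calibration line, from reference interactions of the BCL2 family. Each pool was mated in three replicate cultures.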

The parent's heavy chain CDRs are GFTLNSYGIS, VIYSDGRRTFYGDSVK, GRAAGTFDS; each variant's own CDRs replace them letter for letter.
Every variant below is changed at R57 of the VH (sequential numbering).
Kd is apparent (estimated from mating counts) and averaged on the log scale over replicates with a signal. Smaller is tighter.
Where no diploid with the target was found in any replicate, the entry reads "nd": below detection, most likely a poor binder, though not proof of it.
As a blank, each scFv also met three strains without target: over library AAYL49, 15% of these pairings were detected, typically at 11 µM and seldom below 680 nM.

Variant GTTLNSYGIM, VIYSDGRYTFYGDSVK, GRAAGTFDS gave 30 µM (1 of 3 replicates).
Variant GFTLNSYGIS, VIYYDGRHTFFGDSVK, GRAAGTFDS gave nd (0 of 3 replicates).
Variant GFTLNSYGIY, LIYSDGRMTFYGDSVK, GRAAGTFDS gave 40 µM (1 of 3 replicates).
Variant GFTLNIYGLS, VIYSDGRSTFYGDSVK, GRAAGTFDS gave nd (0 of 3 replicates).
Variant GFTLYSYGIF, VIYSDGRFTFYGDSVK, GRAAGTFDS gave 1.8 µM (1 of 3 replicates).
Variant GFTLNTYDIS, VIYSDGRETFYGDSVK, GRAAGTFDS gave nd (0 of 3 replicates).
Variant GFTLLSYGIS, VIYSDGVDTFYGDSVK, GRAAGTFDS gave 64 µM (2 of 3 replicates).
Variant GFLLNSYGIS, VINSDGRITFYGDSVK, GRAAGTFDS gave 13 µM (2 of 3 replicates).
Variant GFTLNSYGSS, KIYSDGRMTFYGDSVK, GRAAGTFDS gave nd (0 of 3 replicates).
Variant GFTANSYGIS, VIYSDGRTTFYGDSVK, GRAAGTFDV gave 2.0 µM (1 of 3 replicates).
Variant GFTLNSYGIS, VIYSDGRITFYGDSVK, GRAAGTYDA gave 8.5 µM (1 of 3 replicates).
Variant GFTLNSYGIS, VIYSDGRITQYGDSVK, GRAAGTADS gave 30 µM (3 of 3 replicates).
Variant GFTLNSYGIS, VIYSDPRVTFYGDSVK, GRAAGTFDS gave nd (0 of 3 replicates).
Variant GFTLNSYGIS, VIYSDGRGTFYGISGK, GRAAGTFDS gave 40 µM (1 of 3 replicates).
Variant GFTLNSYGIS, VIYSDGRFTFYGDSVK, GRAAGTFDS gave 39 µM (2 of 3 replicates).
Variant GFTLNSYTIS, VIYSDGRVTFYGDPVK, GRAAGTFDS gave nd (0 of 3 replicates).
Variant GFTLNSYGIS, VIYSDGRITFYGDSVK, GRAAGEFDS gave nd (0 of 3 replicates).
Variant GFTLNSYGIS, VIYCDGRQTFYGDSVK, GRAAGTIDS gave 15 µM (1 of 3 replicates).
Variant GFTLNSYGIS, MIYSSGRITFYGDSVK, GRAAGTFDS gave nd (0 of 3 replicates).
Variant GFTLNSYLIS, VIYSDMRCTFYGDSVK, GRAAGTFDS gave nd (0 of 3 replicates).
Variant GFTLNSYGIP, VIYGDGRTTFYGDSVK, GRAAGTFDS gave 12 µM (1 of 3 replicates).
Variant GFTLNSYGIS, VIYSDGRQTSYGDSVK, GRAAGTFDS gave 95 nM (3 of 3 replicates).
Variant GFTLNSYGIS, VWPSDGRITFYGDSVK, GRAAGTFDS gave 100 µM (2 of 3 replicates).
Variant GFTLNSYGIS, VIYSDGRCTFYMDSVK, GEAAGTFDS gave 3.3 µM (1 of 3 replicates).
Variant GFTLNSYGIS, VEYSDGRHTFYGDDVK, GRAAGTFDS gave nd (0 of 3 replicates).
Variant GFCLNSYGIS, VIYSDGRPTFYGDSVK, GRAAGTFDS gave nd (0 of 3 replicates).

Picked from the list: the 2 lowest averages where every replicate gave a value.

| CDR-H1 | CDR-H2 | CDR-H3 | apparent Kd | replicates with signal |
|---|---|---|---|---|
| GFTLNSYGIS | VIYSDGRQTSYGDSVK | GRAAGTFDS | 95 nM | 3 of 3 |
| GFTLNSYGIS | VIYSDGRITQYGDSVK | GRAAGTADS | 30 µM | 3 of 3 |

From the AlphaSeq antibody data of Engelhart et al. 2022 (doi:10.1038/s41597-022-01779-4), copy in the FLAb collection.